By UniProt entry, the sequences of proteins in these tests, tags left out. Where a name states a change or a piece, a line headed by the entry shows the natural chain unless it says otherwise.
UniProt P56817: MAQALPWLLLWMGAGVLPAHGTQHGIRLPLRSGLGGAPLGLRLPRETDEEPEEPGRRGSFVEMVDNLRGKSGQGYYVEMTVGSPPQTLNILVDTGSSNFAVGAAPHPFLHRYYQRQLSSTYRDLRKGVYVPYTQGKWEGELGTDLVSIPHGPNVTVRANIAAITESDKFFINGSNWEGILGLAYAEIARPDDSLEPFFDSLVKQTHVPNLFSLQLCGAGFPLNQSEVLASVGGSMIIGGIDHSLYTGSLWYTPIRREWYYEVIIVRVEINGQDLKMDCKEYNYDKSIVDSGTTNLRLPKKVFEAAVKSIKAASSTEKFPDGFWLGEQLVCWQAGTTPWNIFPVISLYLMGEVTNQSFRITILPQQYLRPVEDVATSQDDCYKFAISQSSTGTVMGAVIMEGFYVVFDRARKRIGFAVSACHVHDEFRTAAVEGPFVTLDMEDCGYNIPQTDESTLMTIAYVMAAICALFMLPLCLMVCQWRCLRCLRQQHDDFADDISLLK

In ChEMBL document CHEMBL1145163, “Structure-based design, synthesis, and memapsin 2 (BACE) inhibitory activity of carbocyclic and heterocyclic peptidomimetics” (J Med Chem, 2005):

Target: Beta-secretase 1 (Homo sapiens, UniProt P56817)
Assay: Inhibitory concentration against human Membrane-associated aspartic protease 2

IC50: 10 nM
Structure (SMILES): CCCCNC(=O)[C@@H](NC(=O)[C@@H]1CC(=O)C[C@H]1[C@H](O)[C@H](CC(C)C)NC(=O)[C@H](CCSC)NC(=O)[C@H](CC(C)C)NC(C)=O)C(C)C
